Source: patent US20240139326A1, “METHACRYLAMIDES PROTEIN BINDERS AND USES THEREOF” (YEDA RESEARCH AND DEVELOPMENT CO. LTD., priority 2020, published 2024)

Chains of the proteins cited; added tags and fusions are not shown. Residues count along the entry.
UniProt Q06187, 402-655: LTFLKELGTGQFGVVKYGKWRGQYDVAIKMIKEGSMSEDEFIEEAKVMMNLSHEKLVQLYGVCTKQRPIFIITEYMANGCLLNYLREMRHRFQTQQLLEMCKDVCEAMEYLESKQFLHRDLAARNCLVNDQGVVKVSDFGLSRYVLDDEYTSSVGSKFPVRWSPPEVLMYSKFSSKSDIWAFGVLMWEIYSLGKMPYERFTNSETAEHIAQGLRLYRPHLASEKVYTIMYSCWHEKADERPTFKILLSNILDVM

Target: BTK kinase domain (Homo sapiens (Human), UniProt Q06187)
Assay: Kinetic labeling experiments of Ibrutinib derivatives with BTK (intact protein LC/MS)
Conditions: mechanism of BTK labeling

C=C(COc1ccccc1)C(=O)N1CCC[C@@H](n2nc(-c3ccc(Oc4ccccc4)cc3)c3c(N)ncnc32)C1 [Compound 3i, (R)-1-(3-(4-amino-3-(4-phenoxyphenyl)-1H-pyrazolo[3,4-d]pyrimidin-1-yl)piperidin-1-yl)-2-(phenoxymethyl)prop-2-en-1-one]
BTK Substitution/Addition: Substitution
